Experimental data published in patent US6710190B1, “3-heteroarylalkyl substituted gaba analogs” (Warner-Lambert Company, priority 1999, dated 2004).

By UniProt entry, the sequences of proteins in these tests, tags left out. Where a name states a change or a piece, a line headed by the entry shows the natural chain unless it says otherwise. Residues count along the entry.
UniProt A0A287BIN3, 25-1109: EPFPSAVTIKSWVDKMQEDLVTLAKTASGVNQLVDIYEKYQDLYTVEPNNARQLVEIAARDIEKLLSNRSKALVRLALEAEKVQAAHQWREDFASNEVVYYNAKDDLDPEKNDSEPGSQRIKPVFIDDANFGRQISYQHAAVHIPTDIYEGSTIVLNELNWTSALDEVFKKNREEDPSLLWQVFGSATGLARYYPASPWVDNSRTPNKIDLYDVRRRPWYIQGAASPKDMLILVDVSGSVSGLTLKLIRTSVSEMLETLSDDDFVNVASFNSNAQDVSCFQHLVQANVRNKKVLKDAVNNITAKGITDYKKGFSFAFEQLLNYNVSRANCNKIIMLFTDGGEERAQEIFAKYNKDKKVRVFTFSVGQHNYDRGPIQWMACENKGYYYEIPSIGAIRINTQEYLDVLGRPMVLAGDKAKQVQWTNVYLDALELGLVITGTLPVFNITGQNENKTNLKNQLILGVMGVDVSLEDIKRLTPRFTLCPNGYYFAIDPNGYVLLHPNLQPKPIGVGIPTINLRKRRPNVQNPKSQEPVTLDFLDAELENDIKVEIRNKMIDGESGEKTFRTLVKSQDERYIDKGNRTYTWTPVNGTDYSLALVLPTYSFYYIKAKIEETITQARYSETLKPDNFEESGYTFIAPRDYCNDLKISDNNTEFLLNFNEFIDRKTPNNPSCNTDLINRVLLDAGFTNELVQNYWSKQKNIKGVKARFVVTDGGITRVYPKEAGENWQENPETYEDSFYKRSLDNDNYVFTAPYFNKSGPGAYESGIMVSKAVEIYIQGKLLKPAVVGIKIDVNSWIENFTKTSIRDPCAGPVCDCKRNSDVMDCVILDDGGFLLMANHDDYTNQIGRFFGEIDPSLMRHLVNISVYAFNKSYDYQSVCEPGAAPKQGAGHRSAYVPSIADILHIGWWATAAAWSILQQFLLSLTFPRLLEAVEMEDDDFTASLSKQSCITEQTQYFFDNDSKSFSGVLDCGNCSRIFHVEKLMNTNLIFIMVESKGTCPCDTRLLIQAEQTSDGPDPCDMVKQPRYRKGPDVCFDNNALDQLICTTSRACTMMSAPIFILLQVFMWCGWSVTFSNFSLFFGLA

Target: T1, α2δ subunit derived from porcine brain tissue (Sus scrofa, UniProt A0A287BIN3)
T1 construct: the α2δ subunit derived from porcine brain tissue was used; from tissue; host or cells: porcine brain tissue
Test: [3H]gabapentin radioligand binding assay (α2δ assay)

**Q.** How did the IC50 turn out when `NCC1(CC(=O)O)CCCCC1` [Gabapentin, 1-(aminomethyl)-cyclohexaneacetic acid, reference compound] was run?
**A.** 100 to 120 nM
